The entries are a selection whose mix differs from that of the whole data set. Some salts or complexes appear as unconnected parts, following the source record. Calls of active or inactive are those of the source. The call rests on the fitted dose curve; in most records, active means well fitted activation curve with a large enough effect; inconclusive means small, poorly fitted or top-dose-only effect; inactive means no such curve, though single readings can be large or run the other way.
Assay: qHTS Assay for NPC1 Promoter Activators;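 further: reporter is driven by a mutant NPC1 promoter; % of control where 0% means no effect; nearly all actives have a fitted effect of over 60% in size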
Conditions: Huh7 NPC1 promoter luciferase reporter, 24 h; at 9.22 µM (top of the series)
For `COc1ccc2c(c1O)-c1c(O)c(OC)cc3c1[C@H](C2)[N+](C)(C)CC3.O=[N+]([O-])c1cc([N+](=O)[O-])c([O-])c([N+](=O)[O-])c1[O-]`, the activation was inactive: -5.69%.
In the case of `O=C(OC1CN2CCC1CC2)c1ccc([N+](=O)[O-])cc1` (configuration not stated), the activation is reported as inactive: 9.74%.
With `CSc1ccc(C(=O)NCC2(N3CCOCC3)CCCCC2)cc1` the activation was inactive: 0.781%.
For `O=C(NCC1(N2CCCCC2)CCCCC1)c1cccc([N+](=O)[O-])c1`, the activation was inactive: -3.67%.
For `N#CC1(Nc2ccccc2)CCN(CCc2ccccc2)CC1`, the activation was inactive: -5.03%.
For `CCN1CCC(Nc2ccc(Cl)cc2)CC1`, the activation was inactive: -2.48%.
In the case of `O=C(NCC1(N2CCCCC2)CCCCC1)c1ccc(OC(F)F)cc1`, the activation is reported as inactive: 3.53%.
For `COc1ccc(NC2CCN(C(=O)OC(C)(C)C)CC2)cc1`, the activation was inactive: -0.0621%.
With `CC(C)c1ccc(C(=O)NCC2(N3CCOCC3)CCCCC2)cc1` the activation was inactive: 6.02%.
For `CN1CCN(CCOC(=O)C(O)(c2ccccc2)c2ccccc2)CC1`, the activation was inactive: -2.11%.
In the case of `O=C(NCC1(N2CCOCC2)CCCCC1)c1cc(=O)[nH]c2ccccc12`, the activation is reported as inactive: -4.38%.
In the case of `COc1cc(C(=O)NCC2(N3CCCCC3)CCCCC2)ccc1OC(F)F`, the activation is reported as inactive: 0.393%.
For `O=C(NCC1(N2CCCCC2)CCCCC1)c1cccc(C(F)(F)F)c1`, the activation was inactive: 2.13%.
For `O=[N+]([O-])c1cc([N+](=O)[O-])c(NCC2CCS(=O)(=O)C2)c([N+](=O)[O-])c1` (configuration not stated), the activation was inactive: -19.7%.
With `CCOC(=O)C(CC)C1=NC(C)(C)Cc2ccccc21.O=[N+]([O-])c1cc([N+](=O)[O-])c(O)c([N+](=O)[O-])c1` (configuration not stated) the activation was inactive: -2.2%.
With `CC(C)(C)OC(=O)N1CCC(N(C(=O)c2ccccc2)c2ccc(Cl)cc2)CC1` the activation was inactive: -0.0851%.
For `N#Cc1ccc(C(=O)NCC2(N3CCCCC3)CCCCC2)cc1`, the activation was inactive: -4.13%.
In the case of `CCCN1CCC(Nc2cc(OC)cc(OC)c2)CC1`, the activation is reported as inactive: -4.69%.
For `c1ccc(CN2CCC(Nc3ccccc3)CC2)cc1`, the activation was inactive: -0.975%.
For `CN(C)C1(CNC(=O)c2cccc(C#N)c2)CCCCC1`, the activation was inactive: -3.06%.
In the case of `COc1ccc(C(=O)NCC2(N3CCOCC3)CCCCC2)cc1OC`, the activation is reported as inactive: 1.98%.
For `O=C(NCC1(N2CCOCC2)CCCCC1)c1cc(Br)ccc1Cl`, the activation was inactive: -2.16%.
In the case of `O=C(O)c1cccc(Nc2c([N+](=O)[O-])cc([N+](=O)[O-])cc2[N+](=O)[O-])c1`, the activation is reported as inactive: -1.06%.
For `CCc1cc(C(=O)NCC2(N3CCCCC3)CCCCC2)sc1C`, the activation was inactive: -8.8%.
For `O=C(OC1CN2CCC1CC2)C1c2ccccc2C=Cc2ccccc21` (configuration not stated), the activation was inactive: -3.83%.
In the case of `N/C(=N\O)c1c(N)no[n+]1[O-]`, the activation is reported as inactive: 2.24%.
For `CCOC(=O)N1CCC(Nc2ccc(C)cc2)CC1`, the activation was inactive: -3.88%.
In the case of `CCCOc1ccc(C(=O)NCC2(N(C)C)CCCCC2)cc1`, the activation is reported as inactive: -1.95%.
For `O=C(O)C1(Nc2ccccc2)CCN(Cc2ccccc2)CC1`, the activation was inactive: 0.405%.
In the case of `CC(C)(C)OC(=O)N1CCC(Nc2ccccc2)CC1`, the activation is reported as inactive: 1.62%.
In the case of `CN1CCC(Nc2ccc(F)c(Cl)c2)CC1`, the activation is reported as inactive: -0.815%.
For `CCOc1ncccc1C(=O)NCC1(N2CCOCC2)CCCCC1`, the activation was inactive: 0.571%.
In the case of `CCCOc1ccc(C)cc1CN(CCCl)CCCl`, the activation is reported as inactive: -2.68%.
In the case of `CN1CCC(Nc2ccc(Cl)cc2)CC1`, the activation is reported as inactive: 1.34%.
For `CCC(CO)(C(=O)OC1CN2CCC1CC2)c1ccccc1` (configuration not stated), the activation was inactive: -2.27%.
In the case of `COc1cccc(C(=O)N(c2cc(C)cc(C)c2)C2CCN(C(=O)OC(C)(C)C)CC2)c1`, the activation is reported as inactive: -3.54%.
In the case of `COc1cc(OC)cc(C(=O)NCC2(N3CCOCC3)CCCCC2)c1`, the activation is reported as inactive: 3.1%.
In the case of `Fc1ccccc1NC1CCN(Cc2ccccc2)CC1`, the activation is reported as inactive: -2.53%.
For `Cc1ccc(C(=O)NCC2(N3CCCCC3)CCCCC2)o1`, the activation was inactive: 7.62%.
With `CN(C)c1ccc(C(=O)NCC2(N3CCCCC3)CCCCC2)cc1` the activation was inactive: 1.9%.
With `O=C(NCC1(N2CCCCC2)CCCCC1)c1ccco1` the activation was inactive: 0.641%.
With `CCN1CCC(Nc2cccc(F)c2)CC1` the activation was inactive: 1.38%.
